Bioassay records (PubChem)
HDAC3 inh: HDAC3 deacetylase inhibitors, primary screen, biochemical, fluorescence, cell-free homogeneous | Histone deacetylase 3 (Homo sapiens), O15379 | recombinant HDAC3, fluorogenic peptide/trypsin coupled | 320,000 tested, 0.15% active | inhibition, % at 8.3 µM; in the data active means inhibition above about 26%, passing the limit was not always enough
ALR H2O2 inh: inhibitors of human sulfhydryl oxidase ALR; 290,000 tested, 3.8% active; inhibition, % (test concentration not listed); AID 485317; P55789; purified ALR, DTT oxidation, H2O2 HRP-luminol luminescence;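 active = mean and each replicate at 75% or more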;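 also: stock transfer was 7.5 nL into about 7.5 µL; 0% = neutral wells and 100% = wells with inactivated enzyme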
NALP1 yeast inh: NALP1 inflammasome inhibitors in reconstituted yeast, colorimetric, S. cerevisiae, triplicate retest. S. cerevisiae NALP1/ASC/caspase-1 growth, X-gal OD620, 72 h. inhibition, % at 10 µM. 280,000 tested, 0.61% active. AID 2071, 2009; in the data active means inhibition mostly above about 24%, no sharp cut-off; inactive means mostly below about 32%
UUG fidelity: modulators of yeast start codon fidelity, primary screen, whole organism, S. cerevisiae, single point, plate reader | AID 602363, 2012 | actives 0.13% (n = 350,000) | activity score, % at 18.7 µM | S. cerevisiae UUG-firefly luciferase reporter, luminescence/redox ratio;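 active means replicate mean at a twofold rise or more, about +100% in these data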;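 further: firefly luciferase made from a UUG start codon reports start codon fidelity; reporter light over untreated wells divided by growth signal over untreated wells; some hits fall short of that in this replicate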
MC4R antag cAMP: MC4R antagonists of cAMP signaling, primary screen, cell-based, TR-FRET, antagonist arm of biased-ligand search; Melanocortin receptor 4 (Homo sapiens), P32245; MC4R-expressing cells, MTII-stimulated cAMP, LANCE TR-FRET; inhibition, % at 6.5 µM; 360,000 tested, 0.48% active; AID 540295, 2011;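 active means inhibition above its plate's cutoff, the mean of tested wells on that plate plus 3 SD, cut at about 29% in these data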;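 further: 0% = Melanotan II alone and 100% = Melanotan II plus saturating MCL0020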
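Test system: U2OS cells stably expressing human melanocortin 4 receptor (MC4R); also added: Melanotan II challenge; compound: 6.5 µM single dose; timing: 30-min compound preincubation, 1-h Melanotan II challenge, 1-h detection, room temperature; signal: Eu-cAMP/anti-cAMP TR-FRET, emission 671 nm; repeats: one well per compound, no replicates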
MC4R ag barr: MC4R agonists recruiting beta-arrestin, primary screen, cell-based, luminescence, agonist arm of biased-ligand search. AID 540308, 2011. U2OS MC4R beta-arrestin complementation; percent of melanotan II response, DMSO zero. activation, % at 8.9 µM. Melanocortin receptor 4 (Homo sapiens), P32245. 360,000 tested, 0.98% active;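 active means activation above a per-plate cutoff, the mean activation of sample wells on that plate plus 3 SD, cut at about 8% in these data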
Numbers without * were called inactive; nt = no result. This is a sample that favours compounds with a hit; in the whole collection about 4.2% have one here.

Chains of the proteins cited; added tags and fusions are not shown.
Melanocortin receptor 4 (Homo sapiens), P32245, UniProt P32245, whole entry, looked up: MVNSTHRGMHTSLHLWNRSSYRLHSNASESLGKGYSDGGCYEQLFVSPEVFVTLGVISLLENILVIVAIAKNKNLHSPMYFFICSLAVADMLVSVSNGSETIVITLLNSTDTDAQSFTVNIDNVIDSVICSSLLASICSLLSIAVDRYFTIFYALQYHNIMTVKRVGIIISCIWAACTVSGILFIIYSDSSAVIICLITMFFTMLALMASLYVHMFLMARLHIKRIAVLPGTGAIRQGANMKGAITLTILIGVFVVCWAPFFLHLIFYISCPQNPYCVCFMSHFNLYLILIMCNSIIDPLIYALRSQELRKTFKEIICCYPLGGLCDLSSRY

| NALP1 yeast inh | HDAC3 inh | MC4R ag barr | UUG fidelity | MC4R antag cAMP | ALR H2O2 inh | SMILES |
| --- | --- | --- | --- | --- | --- | --- |
| 13 | 2 | -1 | nt | -9 | 80* | Nn1c(=S)[nH]nc(Cc2ccc(O)cc2)c1=O |
| nt | nt | nt | -2 | nt | nt | COc1ccc(S(=O)(=O)N(C)C[C@H]2OCCCC[C@@H](C)Oc3ccc(NS(=O)(=O)c4ccc(F)cc4)cc3C(=O)N([C@@H](C)CO)C[C@H]2C)cc1 |
| 38 | -1 | -1 | nt | 35* | 98* | O=C(O)CCn1cc(/C=C/C(=O)c2ccc(Cl)cc2)c(-c2ccc(Br)cc2)n1 |
| nt | nt | nt | -7 | nt | nt | O=C(C[C@@H]1CC[C@H]2[C@@H](COC[C@@H](O)CN2Cc2ccncc2)O1)NCC1CC1 |
| nt | nt | nt | 4 | nt | nt | O=C(Nc1ccc(Cl)cc1)N[C@H]1CC[C@@H](CCNC(=O)c2ccccc2F)O[C@@H]1CO |
| 25 | 7 | 1 | -13 | -6 | 85* | COc1ccc(NC2C=CS(=O)(=O)C2)c(OC)c1 (stereo not given) |
| nt | nt | nt | 3 | nt | nt | O=C(C1=C[C@@H](c2ccc3c(c2)Cc2ccccc2-3)C[C@@H](OCCCCO)O1)N1CCCCC1 |
| nt | nt | nt | 15 | nt | nt | COc1cccc(C#Cc2cnc3c(c2)C(=O)N([C@H](C)CO)C[C@@H](C)[C@H](CN(C)C)O3)c1 |
| -4 | 1 | 1 | -24 | -4 | 97* | Cc1ccc(-n2[nH]c(=O)c3cccnc32)cc1 |
| nt | 5 | -1 | nt | -17 | -9 | CC(=O)Nc1cc(NC(C)=O)c(N=Nc2ccccc2)cc1C |
| nt | 18 | -1 | nt | 16 | 99* | Cc1ccc(NCC(O)C(O)C(O)CO)c(N=Nc2ccccc2)c1C (stereo not given) |
| 6 | 2 | -2 | -25 | 7 | 98* | O=C(O)CC/C(=N\Nc1ccccc1[N+](=O)[O-])c1cccs1 |
| nt | nt | nt | 5 | nt | nt | CCCN1C[C@@H](C)[C@H](OC)CN(C)C(=O)c2cc(NC(=O)C3CC3)ccc2OC[C@@H]1C |
| 4 | 4 | 2 | nt | 7 | 1 | CCOC(=O)C1(CCc2ccccc2)CCN(C(=O)c2occc2C)CC1 |
| 6 | -2 | 2 | nt | 16 | 100* | CCOC(=O)C1(CCc2ccccc2)CCN(C(=O)Cc2nonc2C)CC1 |
| nt | nt | nt | -16 | nt | nt | C[C@@H]1CN([C@H](C)CO)C(=O)c2cc(NS(=O)(=O)c3cn(C)cn3)ccc2O[C@H]1CN(C)Cc1ccc(C(=O)O)cc1 |
| 2 | 4 | -2 | 8 | 13 | 99* | O=C(O)CCc1ccc(-c2cccs2)n1Cc1ccco1 |
| 4 | -4 | 3 | nt | -4 | 81* | COCCn1c(CCC(=O)O)ccc1-c1cccs1 |
| 21 | 0 | 0 | -23 | 16 | 99* | O=C(O)CCc1ccc(-c2cccs2)n1NC(=O)c1cccs1 |
| 1 | -1 | -1 | -14 | 4 | nt | Cc1ccc(-n2c(CCC(=O)O)ccc2-c2cccs2)cc1C |
| 7 | -8 | 0 | -19 | 0 | 93* | CCCCn1c(CCC(=O)O)ccc1-c1cccs1 |
| -12 | -1 | -1 | -1 | 1 | 47 | O=C(O)CCc1ccc(-c2ccc(Cl)cc2)n1Cc1ccco1 |
| nt | nt | nt | -7 | nt | nt | C[C@H]1CN([C@@H](C)CO)S(=O)(=O)c2ccc(-c3ccncc3)cc2O[C@H]1CN(C)C(=O)CC1CC1 |
| nt | nt | nt | -9 | nt | nt | CCCN1C[C@H](C)[C@H](OC)CN(C)C(=O)c2cc(NS(=O)(=O)c3cn(C)cn3)ccc2OC[C@@H]1C |
| nt | nt | nt | 26 | nt | nt | C[C@H](CO)N1C[C@H](C)[C@@H](CN(C)C(=O)CN(C)C)Oc2ncc(-c3ccc(F)cc3)cc2C1=O |
| 24 | -3 | 49* | -14 | 18 | -15 | Cc1[nH]nc2nc(SCC(=O)NCCC3=CCCCC3)n(-c3ccc(Br)cc3)c(=N)c12 |
| 21 | 11 | 15* | -10 | 10 | -2 | Cc1cc(-n2c(SCC(=O)NCCC3=CCCCC3)nc3n[nH]c(C)c3c2=N)ccc1Cl |
| 29 | 2 | 25* | -16 | 17 | -5 | COc1ccc(NC(=O)CSc2nc3n[nH]c(C)c3c(=N)n2-c2ccc(Cl)c(C)c2)cc1OC |
| -20 | -4 | 0 | -20 | 4 | -10 | COc1ccc(-n2c(SCC(=O)NCC3CCCO3)nc3n[nH]c(C)c3c2=N)cc1 (stereo not given) |
| 33 | 2 | 1 | nt | 11 | -5 | Cc1ccc(Cl)cc1-n1c(SCC(=O)NCCC2=CCCCC2)nc2n[nH]c(C)c2c1=N |
| 3 | 0 | -1 | -19 | 8 | 18 | C/C(=N\NC(=O)Cc1c(C)[nH][nH]c1=O)c1ccc(Cl)c(Cl)c1 |
| nt | 5 | -1 | nt | 11 | nt | C/C(=N\NC(=O)Cc1c(C)[nH][nH]c1=O)c1cccc(Br)c1 |
| 23 | 4 | -1 | 5 | 12 | 99* | COc1cc(/C(C)=N/NC(=O)Cc2c(C)[nH][nH]c2=O)ccc1O |
| 14 | 2 | 1 | -17 | 18 | 99* | COc1cc(/C(C)=N\NC(=O)CSc2nc3ccccc3n2C)ccc1O |
| 24 | -1 | 0 | nt | -2 | 98* | C/C(=N/NC(=O)Cc1c(C)[nH][nH]c1=O)c1ccc(O)cc1 |
| -6 | -7 | -2 | nt | 10 | -9 | C/C(=N/NC(=O)CSc1nc2ccccc2n1C)c1ccncc1 |
| nt | nt | nt | 29 | nt | nt | C[C@@H]1CN([C@H](C)CO)C(=O)Cc2cc(NS(=O)(=O)c3ccc(F)cc3)ccc2O[C@H]1CN(C)S(=O)(=O)c1ccc(F)cc1 |
| nt | nt | nt | -17 | nt | nt | Cc1ccc(S(=O)(=O)N[C@H]2CC[C@H](CCNC(=O)C3CC3)O[C@H]2CO)cc1 |
| 0 | 2 | -2 | -1 | -1 | 99* | CCCCCOc1ccc(CSC(=N)N)cc1[N+](=O)[O-] |
| 36 | -5 | -1 | nt | -3 | 99* | CCOc1ccc(CSC2=NCCN2)cc1[N+](=O)[O-] |
| 28 | -5 | 6 | nt | 0 | -21 | CCCCOc1ccc(CN(CCO)CCO)cc1[N+](=O)[O-] |
| 11 | -2 | -1 | -18 | 13 | 99* | O=[N+]([O-])c1ccc(CSC2=NCCN2)cc1 |
| 47* | 0 | 3 | -15 | -9 | 100* | CCCCOc1ccc(CSC2=NCCN2)cc1[N+](=O)[O-] |
| nt | nt | nt | 5 | nt | nt | COc1ccc(S(=O)(=O)N(C)C[C@@H]2Oc3ccc(NS(=O)(=O)c4c(C)noc4C)cc3C(=O)N([C@@H](C)CO)C[C@@H]2C)cc1 |
| 6 | -3 | -1 | nt | -2 | 2 | c1ccc(CSC2=NCCS2)cc1 |
| 22 | 1 | -1 | -4 | 3 | 99* | O=[N+]([O-])c1ccc(CSC2=NCCS2)cc1 |

Some of the entries so far, comma-delimited:
canonical_smiles,NALP1 yeast inh,HDAC3 inh,MC4R ag barr,UUG fidelity,MC4R antag cAMP,ALR H2O2 inh
CCCCOc1ccc(CN(CCO)CCO)cc1[N+](=O)[O-],28,-5,6,nt,0,-21
C/C(=N/NC(=O)CSc1nc2ccccc2n1C)c1ccncc1,-6,-7,-2,nt,10,-9
O=[N+]([O-])c1ccc(CSC2=NCCN2)cc1,11,-2,-1,-18,13,99*
CCOc1ccc(CSC2=NCCN2)cc1[N+](=O)[O-],36,-5,-1,nt,-3,99*
O=[N+]([O-])c1ccc(CSC2=NCCS2)cc1,22,1,-1,-4,3,99*
Cc1ccc(S(=O)(=O)N[C@H]2CC[C@H](CCNC(=O)C3CC3)O[C@H]2CO)cc1,nt,nt,nt,-17,nt,nt
